Values quoted from earlier work in patent publication US20250073235A1, “INHIBITION OF MAST CELL TUMOR NECROSIS FACTOR FOR THERAPEUTIC USE” (The University of Southern Mississippi, priority 2023, published 2025).

By UniProt entry, the sequences of proteins in these tests, tags left out.
UniProt P53779, whole entry, species assumed: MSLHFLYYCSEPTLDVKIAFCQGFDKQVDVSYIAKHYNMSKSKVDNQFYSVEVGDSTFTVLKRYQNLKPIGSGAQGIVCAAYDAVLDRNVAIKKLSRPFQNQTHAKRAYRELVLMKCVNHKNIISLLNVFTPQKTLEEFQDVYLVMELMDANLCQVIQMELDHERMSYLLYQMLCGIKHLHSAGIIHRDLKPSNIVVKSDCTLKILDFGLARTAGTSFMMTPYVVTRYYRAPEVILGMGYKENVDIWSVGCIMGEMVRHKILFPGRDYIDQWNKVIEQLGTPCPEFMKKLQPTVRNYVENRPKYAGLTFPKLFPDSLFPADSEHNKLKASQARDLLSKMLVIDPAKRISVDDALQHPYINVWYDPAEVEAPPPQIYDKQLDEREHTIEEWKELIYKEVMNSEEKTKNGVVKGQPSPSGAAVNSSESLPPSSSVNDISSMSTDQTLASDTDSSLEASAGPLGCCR
UniProt P45983, whole entry, species assumed: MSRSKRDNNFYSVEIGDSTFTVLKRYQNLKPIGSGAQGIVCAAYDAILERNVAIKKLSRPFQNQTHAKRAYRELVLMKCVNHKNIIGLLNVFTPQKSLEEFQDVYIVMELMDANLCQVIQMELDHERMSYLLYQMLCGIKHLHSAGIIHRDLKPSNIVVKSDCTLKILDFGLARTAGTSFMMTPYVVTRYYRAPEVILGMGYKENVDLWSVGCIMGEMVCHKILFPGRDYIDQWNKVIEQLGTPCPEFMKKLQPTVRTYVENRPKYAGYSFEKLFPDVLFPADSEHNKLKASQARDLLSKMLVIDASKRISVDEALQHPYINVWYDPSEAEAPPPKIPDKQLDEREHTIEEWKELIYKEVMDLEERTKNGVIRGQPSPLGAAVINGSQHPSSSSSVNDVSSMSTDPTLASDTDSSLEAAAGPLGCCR

Columns and labels:
JNK3 = JNK3 (Homo sapiens, UniProt P53779); details: cited from earlier work
JNK1 = JNK1 (Homo sapiens, UniProt P45983); details: cited from earlier work

In the case of `Cc1cc(NC(=O)c2cccc(NC(=O)/C=C/CN(C)C)c2)ccc1Nc1nccc(-c2cccnc2)n1` [JNK-IN-8], the pIC50 (JNK3) is listed as 9.00 and the pIC50 (JNK1) is listed as 8.33.

pIC50: −log10 of the molar value.
